Data taken from patent publication US11608341B2, “Substituted tetrahydropyrazolo[3,4-d]pyrimidines and tetrahydropyrazolo[4,3-d]pyrimidines as C5A receptor modulators” (Idorsia Pharmaceuticals Ltd., priority 2018, dated 2023).

Chains of the proteins cited; added tags and fusions are not shown.
UniProt P21730, whole entry: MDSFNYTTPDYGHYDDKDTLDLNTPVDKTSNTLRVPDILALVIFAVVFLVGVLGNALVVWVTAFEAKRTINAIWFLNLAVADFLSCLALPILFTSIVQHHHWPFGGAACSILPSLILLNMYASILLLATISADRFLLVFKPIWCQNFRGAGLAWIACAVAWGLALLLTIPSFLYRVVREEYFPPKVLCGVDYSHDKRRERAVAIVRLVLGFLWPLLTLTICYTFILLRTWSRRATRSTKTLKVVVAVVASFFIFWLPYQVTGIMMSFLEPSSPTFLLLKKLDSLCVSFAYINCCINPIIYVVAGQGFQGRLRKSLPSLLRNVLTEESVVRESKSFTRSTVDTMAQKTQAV

Target: C5AR1 (Homo sapiens, UniProt P21730)
Test: In vitro assay: antagonism of C5a-induced beta-arrestin recruitment (PathHunter) in CHO-K1 C5AR1 beta-arrestin cell line
Conditions: read-out: C5aR IC50, antagonistic activity, 1-10 nM C5a agonist, geometric mean where several measurements

Compound | IC50 [nM]
CC1c2cn(C3CC3)nc2N(Cc2ccccc2C2CC2)C(=O)N1C1CCN(c2c(F)cccc2Cl)CC1 (single isomer, unassigned) | 15
COc1nccc(C(F)F)c1N1CCC(N2C(=O)N(Cc3ccccc3C3CC3)c3nn(C4CCCCO4)cc3C2C)CC1 (stereo not drawn) | 84
Cc1cccc(F)c1N1CCC(N2Cc3c(cnn3C)N(Cc3ccccc3C(F)(F)F)C2=O)CC1 | 293
[2H]c1ccc(C(F)(F)F)c(CN2C(=O)N(C3CCN(c4c(C)cccc4F)CC3)Cc3cn(C)nc32)n1 | 16
Cc1cccc(F)c1N1CCC(N2Cc3n[nH]nc3N(Cc3ccccc3C(F)(F)F)C2=O)CC1 | 20
Cc1cccc(F)c1N1CCC(N2Cc3cn(C4CC4)nc3N(Cc3ncccc3C(F)(F)F)C2=O)CC1 | 3
Cc1cccc(F)c1N1CCC(N2Cc3[nH]cnc3N(Cc3ccccc3C(F)(F)F)C2=O)CC1 | 466
[2H]C([2H])([2H])C([2H])(C([2H])([2H])[2H])C([2H])([2H])n1cc2c(n1)N(Cc1ccccc1C(F)(F)F)C(=O)N(C1CCN(c3c(C)cccc3F)CC1)C2 | 10
C[C@H]1c2cn(C)nc2N(Cc2ccccc2C2CC2)C(=O)N1C1CCN(c2c(F)cccc2C(F)F)CC1 | 9
Cc1cccc(F)c1N1CCC(N2Cc3nn(C)cc3N(Cc3ccccc3C(F)(F)F)C2=O)CC1 | 36
[2H]C([2H])([2H])C([2H])([2H])n1cc2c(n1)N(Cc1ccccc1C(F)(F)F)C(=O)N(C1CCN(c3c(C)cccc3F)CC1)C2 | 6
CCOCn1cc2c(n1)N(Cc1ccccc1C(F)(F)F)C(=O)N(C1CCN(c3c(C)cccc3F)CC1)C2 | 16
[2H]C([2H])([2H])C(n1cc2c(n1)N(Cc1ccccc1C(F)(F)F)C(=O)N(C1CCN(c3c(C)cccc3F)CC1)C2)C([2H])([2H])[2H] | 10
Cc1cccc(F)c1N1CCC(N2Cc3cn(COCC[Si](C)(C)C)nc3N(Cc3ccccc3C(F)(F)F)C2=O)CC1 | 16
Cc1cccc(F)c1N1CCC(N2Cc3c(ncn3COCC[Si](C)(C)C)N(Cc3ccccc3C(F)(F)F)C2=O)CC1 | 28
CC1c2cn(C)nc2N(Cc2ccccc2C(F)(F)F)C(=O)N1C1CCN(c2c(F)cccc2C2CC2)CC1 (single isomer, unassigned) | 14
Cc1cccc(F)c1N1CCC(N2Cc3c(cnn3COCC[Si](C)(C)C)N(Cc3ccccc3C(F)(F)F)C2=O)CC1 | 85
COc1nccc(C)c1N1CCC(N2C(=O)N(Cc3ccccc3C3CC3)c3nn(C)cc3C2C)CC1 (single isomer, unassigned) | 8
Cc1cccc(F)c1N1CCC(N2Cc3nn(C)cc3N(Cc3nccnc3C(F)(F)F)C2=O)CC1 | 603
C[C@@H]1c2cn(C)nc2N(Cc2ccccc2C2CC2)C(=O)N1C1CCN(c2c(F)cccc2C(F)F)CC1 | 182
Cc1cccc(F)c1N1CCC(N2Cc3nn(C)cc3N(Cc3cnccc3C(F)(F)F)C2=O)CC1 | 226
[2H]C([2H])([2H])n1cc2c(n1)N(Cc1ccccc1C(F)(F)F)C(=O)N(C1CCN(c3c(C)cccc3F)CC1)C2 | 8
Cc1cccc(F)c1N1CCC(N2Cc3cnn(C)c3N(Cc3ccccc3C(F)(F)F)C2=O)CC1 | 341
COc1nccc(C(F)F)c1N1CCC(N2C(=O)N(Cc3ccccc3C3CC3)c3nn(C)cc3C2C)CC1 (single isomer, unassigned) | 10
Cc1cccc(F)c1N1CCC(N2Cc3cn(C4CCCC4NC(=O)OC(C)(C)C)nc3N(Cc3ccccc3C(F)(F)F)C2=O)CC1 (stereo not drawn) | 24
Cc1cccc(F)c1N1CCC(N2Cc3[nH]ncc3N(Cc3ccccc3C(F)(F)F)C2=O)CC1 | 10
[2H]C([2H])([2H])C([2H])(n1cc2c(n1)N(Cc1ccccc1C(F)(F)F)C(=O)N(C1CCN(c3c(C)cccc3F)CC1)C2)C([2H])([2H])[2H] | 9
Cn1cc2c(n1)N(Cc1ccccc1C1CC1)C(=O)N(C1CCN(c3c(F)cccc3C#N)CC1)C2 | 18
Cc1cccc(F)c1N1CCC(N2Cc3cn(CC4CCCN4)nc3N(Cc3ccccc3C(F)(F)F)C2=O)CC1 (stereo not drawn) | 354
Cc1cccc(F)c1N1CCC(N2Cc3c[nH]nc3N(Cc3ccccc3C(F)(F)F)C2=O)CC1 | 9
